Experimental data as given in publication PMC5438973 (Frontiers in Psychiatry, 2017).

Protein sequences, listed by entry. Tags and fused reporters are not part of them. Residues count along the entry.
UniProt P28223, whole entry: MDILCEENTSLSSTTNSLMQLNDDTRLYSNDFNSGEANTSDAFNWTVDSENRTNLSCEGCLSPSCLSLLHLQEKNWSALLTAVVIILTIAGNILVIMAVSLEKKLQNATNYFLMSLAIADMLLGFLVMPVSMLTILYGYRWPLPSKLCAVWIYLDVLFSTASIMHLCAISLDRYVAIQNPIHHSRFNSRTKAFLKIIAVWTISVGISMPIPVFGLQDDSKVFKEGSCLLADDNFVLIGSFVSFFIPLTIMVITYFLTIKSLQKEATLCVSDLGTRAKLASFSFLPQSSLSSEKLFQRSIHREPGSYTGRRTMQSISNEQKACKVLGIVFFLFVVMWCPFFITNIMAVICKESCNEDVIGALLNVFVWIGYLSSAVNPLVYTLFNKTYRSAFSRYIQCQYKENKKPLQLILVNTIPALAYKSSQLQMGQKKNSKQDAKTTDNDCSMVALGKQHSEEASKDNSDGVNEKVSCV
UniProt P41595, whole entry: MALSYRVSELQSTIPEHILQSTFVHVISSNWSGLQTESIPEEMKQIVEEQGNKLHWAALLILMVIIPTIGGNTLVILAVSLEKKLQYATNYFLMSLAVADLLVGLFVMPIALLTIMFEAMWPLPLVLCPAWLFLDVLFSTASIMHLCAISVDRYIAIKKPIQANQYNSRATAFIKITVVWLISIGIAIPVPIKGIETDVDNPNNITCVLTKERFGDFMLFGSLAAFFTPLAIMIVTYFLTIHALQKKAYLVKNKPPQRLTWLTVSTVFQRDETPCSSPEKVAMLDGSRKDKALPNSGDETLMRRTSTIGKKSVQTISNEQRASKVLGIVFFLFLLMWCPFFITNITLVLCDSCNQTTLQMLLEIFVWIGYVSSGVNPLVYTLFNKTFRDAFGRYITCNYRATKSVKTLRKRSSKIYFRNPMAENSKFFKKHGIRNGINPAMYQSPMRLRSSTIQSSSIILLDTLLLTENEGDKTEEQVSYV
UniProt P28335, 33-458: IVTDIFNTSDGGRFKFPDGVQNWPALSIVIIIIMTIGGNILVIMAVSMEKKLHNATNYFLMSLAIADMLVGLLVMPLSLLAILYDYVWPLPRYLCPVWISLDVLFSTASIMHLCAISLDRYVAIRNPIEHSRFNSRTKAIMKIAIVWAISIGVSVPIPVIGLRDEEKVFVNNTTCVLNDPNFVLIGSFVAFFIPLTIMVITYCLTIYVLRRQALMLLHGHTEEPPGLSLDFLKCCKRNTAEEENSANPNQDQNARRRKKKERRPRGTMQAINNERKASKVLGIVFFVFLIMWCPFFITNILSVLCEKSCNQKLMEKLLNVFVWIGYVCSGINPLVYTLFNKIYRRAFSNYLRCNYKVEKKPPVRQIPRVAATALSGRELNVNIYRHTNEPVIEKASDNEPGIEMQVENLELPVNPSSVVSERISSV

What was measured:
Test in all cases: GTP-γ-[35S] functional assay (SPA), AV12 cells
Assay type in all cases: biochemical
h5-HT2A = target: T1, h5-HT2A (Homo sapiens, UniProt P28223)
T1 construct: expressed in transfected cells; host or cells: AV12 cells
Source text: (§1) 5-HT2 receptors are functionally coupled to specific G-proteins. Agonist activation of 5-HT2 G-protein coupled receptors results in the release of GDP from alpha-subunit (G alpha q or G alpha i) of the G-protein and the subsequent binding of GTP. The binding of the stable analog GTP-g-[^35S] is an indicator of receptor activation. Human cloned 5-HT2A, −2B, and −2C receptors were expressed in AV12 cells. GTP-g-[^35S] nucleotide exchange scintillation proximity assay (SPA) was used to measure binding as previously described ([14]).

h5-HT2B = target: T2, h5-HT2B (Homo sapiens, UniProt P41595)
T2 construct: expressed in transfected cells; host or cells: AV12 cells
Source text: as §1

h5-HT2C = target: T3, h5-HT2C (Homo sapiens, UniProt P28335)
T3 construct: expressed in transfected cells; host or cells: AV12 cells
Source text: as §1

Clc1cccc(N2CCNCC2)c1 [mCPP, meta-chlorophenylpiperazine]
EC50 (h5-HT2A): 97 ± 1 nM | EC50 (h5-HT2B): 2 ± 1 nM | EC50 (h5-HT2C): 1 nM
